From patent US20240209034A1 (priority 2021, published 2024)
Read-outs that look alike come from different tables or passages of the source.

Sequences of proteins named here, by UniProt entry; tags and fusion partners are left off. Residues count along the entry.
UniProt P06756, 891-1048 partner limits assumed: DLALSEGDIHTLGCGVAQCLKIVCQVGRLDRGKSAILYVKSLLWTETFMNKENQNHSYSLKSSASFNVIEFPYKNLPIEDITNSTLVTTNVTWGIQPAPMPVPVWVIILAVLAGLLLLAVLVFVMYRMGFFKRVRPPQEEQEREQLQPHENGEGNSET
UniProt P06756, 31-889 limits assumed: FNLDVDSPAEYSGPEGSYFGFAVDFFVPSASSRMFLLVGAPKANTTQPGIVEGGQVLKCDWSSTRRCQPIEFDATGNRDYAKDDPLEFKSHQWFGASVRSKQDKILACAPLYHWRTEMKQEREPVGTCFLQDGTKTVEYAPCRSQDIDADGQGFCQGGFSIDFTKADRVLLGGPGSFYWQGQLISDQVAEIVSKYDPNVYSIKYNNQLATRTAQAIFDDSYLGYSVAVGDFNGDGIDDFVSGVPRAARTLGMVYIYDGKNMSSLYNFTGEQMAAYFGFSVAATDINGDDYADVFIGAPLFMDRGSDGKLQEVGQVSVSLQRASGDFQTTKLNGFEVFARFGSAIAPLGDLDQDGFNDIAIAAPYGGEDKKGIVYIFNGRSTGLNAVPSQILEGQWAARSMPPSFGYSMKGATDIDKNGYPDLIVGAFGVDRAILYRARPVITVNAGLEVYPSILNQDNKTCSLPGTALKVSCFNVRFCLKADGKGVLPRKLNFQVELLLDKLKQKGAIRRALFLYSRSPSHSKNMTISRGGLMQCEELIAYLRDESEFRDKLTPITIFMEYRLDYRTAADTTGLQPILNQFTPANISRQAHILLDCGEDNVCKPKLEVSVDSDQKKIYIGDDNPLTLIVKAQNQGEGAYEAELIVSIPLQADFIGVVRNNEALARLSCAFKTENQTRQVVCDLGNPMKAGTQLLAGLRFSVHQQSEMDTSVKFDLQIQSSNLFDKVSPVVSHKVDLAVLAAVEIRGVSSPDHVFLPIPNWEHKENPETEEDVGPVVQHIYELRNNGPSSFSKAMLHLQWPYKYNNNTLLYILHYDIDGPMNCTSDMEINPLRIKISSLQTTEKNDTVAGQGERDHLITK
UniProt P18564, 22-788 limits assumed: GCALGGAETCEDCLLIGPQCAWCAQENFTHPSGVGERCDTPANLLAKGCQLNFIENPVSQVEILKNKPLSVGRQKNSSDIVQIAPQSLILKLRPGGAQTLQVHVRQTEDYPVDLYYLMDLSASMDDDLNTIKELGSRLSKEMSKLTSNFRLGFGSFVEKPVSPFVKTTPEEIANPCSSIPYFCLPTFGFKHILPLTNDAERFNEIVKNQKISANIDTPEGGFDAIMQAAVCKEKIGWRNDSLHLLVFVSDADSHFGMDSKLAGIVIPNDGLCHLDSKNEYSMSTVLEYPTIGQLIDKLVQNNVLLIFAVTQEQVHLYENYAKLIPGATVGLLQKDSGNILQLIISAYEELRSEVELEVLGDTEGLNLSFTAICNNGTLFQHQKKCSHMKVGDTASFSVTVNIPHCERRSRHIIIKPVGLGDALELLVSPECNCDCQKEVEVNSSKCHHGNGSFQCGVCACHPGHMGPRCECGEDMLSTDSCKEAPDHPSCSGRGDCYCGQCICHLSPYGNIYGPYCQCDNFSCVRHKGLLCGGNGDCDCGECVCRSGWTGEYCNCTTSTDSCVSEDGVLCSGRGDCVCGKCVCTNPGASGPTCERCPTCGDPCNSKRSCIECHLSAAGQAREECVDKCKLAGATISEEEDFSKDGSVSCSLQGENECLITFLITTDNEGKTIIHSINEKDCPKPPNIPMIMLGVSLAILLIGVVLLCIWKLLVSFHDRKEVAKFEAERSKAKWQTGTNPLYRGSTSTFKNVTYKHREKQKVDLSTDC

Key:
[1] = biological target: integrin αvβ6 (K562 αvβ6:mCherry cells) (Homo sapiens, UniProt P06756+P18564); conditions: read-out: apparent binding affinity (KD)
[2] = mouse, 24 h
[3] = mouse, in vivo

Row | Structure (SMILES) | Kd [1] [nM] | remaining fully intact peptide in serum [2] [%] | half-life ([3]; distribution half-life) [min] | half-life ([3]; elimination half-life) [min]
1 | CC(C)C[C@@H]1NC(=O)[C@H](CC(=O)O)NC(=O)CNC(=O)[C@H](CCCNC(=N)N)NC(=O)[C@H](CC(C)C)NC(=O)[C@H](CC(N)=O)NC(=O)[C@@H]2CCCN2C(=O)[C@H](C(C)C)NC(=O)[C@H](C)NC(=O)[C@@H](NC(=O)CCCC[C@@H]2SC[C@@H]3NC(=O)N[C@@H]32)CSc2c(F)c(F)c(c(F)c2F)-c2c(F)c(F)c(c(F)c2F)SC[C@@H](C(=O)N[C@@H](CCCNC(=N)N)C(=O)N[C@H](C(=O)N[C@@H](CCCCN)C(N)=O)[C@@H](C)O)NC(=O)[C@H](C(C)C)NC(=O)[C@H](CCCCN)NC(=O)[C@H](CCC(N)=O)NC(=O)[C@H](C)NC(=O)[C@H](CC(C)C)NC(=O)[C@H](C(C)C)NC(=O)[C@H](CCC(N)=O)NC1=O [C1C18 DFBP] | 85.3 ± 18.6 |  |  | 
2 | CC(C)C[C@@H]1NC(=O)[C@H](CC(=O)O)NC(=O)CNC(=O)[C@H](CCCNC(=N)N)NC(=O)[C@H](CC(C)C)NC(=O)[C@H](CC(N)=O)NC(=O)[C@@H]2CCCN2C(=O)[C@H](C(C)C)NC(=O)[C@@H](NC(=O)[C@H](CC(N)=O)NC(=O)CCCC[C@@H]2SC[C@@H]3NC(=O)N[C@@H]32)CSc2c(F)c(F)c(c(F)c2F)-c2c(F)c(F)c(c(F)c2F)SC[C@@H](C(=O)N[C@@H](CCCNC(N)=O)C(=O)N[C@H](C(=O)N[C@@H](CCCCN)C(=O)N[C@H](C)C(N)=O)[C@@H](C)O)NC(=O)[C@H](C(C)C)NC(=O)[C@H](CCCCN)NC(=O)[C@H](CCC(N)=O)NC(=O)[C@H](C)NC(=O)[C@H](CC(C)C)NC(=O)[C@H](C(C)C)NC(=O)[C@H](CCC(N)=O)NC1=O [C2C18 CitTKAD DFBP] | 75.8 ± 24 | 10.4 |  | 
3 | CC(C)C[C@@H]1NC(=O)[C@H](CC(=O)O)NC(=O)CNC(=O)[C@H](CCCNC(=N)N)NC(=O)[C@H](CC(C)C)NC(=O)[C@H](CC(N)=O)NC(=O)[C@@H]2CCCN2C(=O)[C@H](C(C)C)NC(=O)[C@@H](NC(=O)[C@H](CC(N)=O)NC(=O)CCCC[C@@H]2SC[C@@H]3NC(=O)N[C@@H]32)CSc2c(F)c(F)c(c(F)c2F)-c2c(F)c(F)c(c(F)c2F)SC[C@@H](C(=O)N[C@@H](CCCNC(=N)N)C(=O)N[C@H](C(=O)N[C@@H](CCCCN)C(N)=O)[C@@H](C)O)NC(=O)[C@H](C(C)C)NC(=O)[C@H](CCCCN)NC(=O)[C@H](CCC(N)=O)NC(=O)[C@H](C)NC(=O)[C@H](CC(C)C)NC(=O)[C@H](C(C)C)NC(=O)[C@H](CCC(N)=O)NC1=O [C2C18 DFBP] | 70.8 ± 20.3 |  |  | 
4 | CC(C)C[C@@H]1NC(=O)[C@H](CC(=O)O)NC(=O)CNC(=O)[C@H](CCCNC(=N)N)NC(=O)[C@H](CC(C)C)NC(=O)[C@H](CC(N)=O)NC(=O)[C@@H]2CCCN2C(=O)[C@H](C(C)C)NC(=O)[C@@H](NC(=O)[C@H](CC(N)=O)NC(=O)CCCC[C@@H]2SC[C@@H]3NC(=O)N[C@@H]32)CSc2c(F)c(F)c(c(F)c2F)-c2c(F)c(F)c(c(F)c2F)SC[C@@H](C(=O)N[C@H](CCCNC(=N)N)C(=O)N[C@H](C(=O)N[C@@H](CCCCN)C(=O)N[C@H](C)C(N)=O)[C@@H](C)O)NC(=O)[C@H](C(C)C)NC(=O)[C@H](CCCCN)NC(=O)[C@H](CCC(N)=O)NC(=O)[C@H](C)NC(=O)[C@H](CC(C)C)NC(=O)[C@H](C(C)C)NC(=O)[C@H](CCC(N)=O)NC1=O [C2C18 RDTKAD DFBP] | 55.3 ± 6.06 |  |  | 
5 | CC(=O)N[C@@H](CC(N)=O)C(=O)N[C@H]1CSc2c(F)c(F)c(c(F)c2F)-c2c(F)c(F)c(c(F)c2F)SC[C@@H](C(=O)N[C@H](CCCNC(=N)N)C(=O)N[C@H](C(=O)N[C@H](CCCCNC(=O)CCCCC[N+]2=C(/C=C/C=C/C=C3/N(C)c4ccccc4C3(C)C)C(C)(C)c3ccccc32)C(N)=O)[C@@H](C)O)NC(=O)[C@H](C(C)C)NC(=O)[C@H](CCCCN)NC(=O)[C@H](CCC(N)=O)NC(=O)[C@@H](C)NC(=O)[C@H](CC(C)C)NC(=O)[C@H](C(C)C)NC(=O)[C@H](CCC(N)=O)NC(=O)[C@H](CC(C)C)NC(=O)[C@H](CC(=O)O)NC(=O)CNC(=O)[C@H](CCCNC(=N)N)NC(=O)[C@H](CC(C)C)NC(=O)[C@H](CC(N)=O)NC(=O)[C@@H]2C[C@@H](O)CN2C(=O)[C@H](C(C)C)NC1=O [Cy5-labeled C2C18 PhADRDTKD DFBP] |  |  | ~2 | ~50
